Assay results reported in article PMC7891601 (Clinical Pharmacology and Therapeutics, 2020).

Format: in vivo, human
Conditions: pyrimethamine 10 mg vs control

## CN(C)C(=N)N=C(N)N [Metformin, metformin]
  impact of pyrimethamine on AUC: no impact
